Consider one substance from patent publication US20090214475A1, “Extractability and Bioavailability of the Natural Antioxidant Astaxanthin From a Green Alga, Haematococcus Pluvialis” (published 2009).

The test system of this test is H. pluvialis. As to the kind of experiment: Effect of MNNG dose and treatment time on cell survival rate.

On to MNNG, for which the “cell death / survival rate” value (100 μg mL^−1 MNNG for 5 or 10 min) is “did not cause significant cell death”. Further, the survival rate entry runs as follows: (100 μg mL^−1 MNNG, 15 min) “ca. 70%”; (100 μg mL^−1 MNNG, 30 min) less than 30%; (100 μg mL^−1 MNNG, 60 min) “around 20%”; (1,000 μg MNNG mL^−1, 30 min) “ca. 1%”.
